Measured values published in patent publication US7820706B2, “Multiple dose aromatase inhibitor for treating infertility” (Ares Trading S.A., priority 2001, dated 2010).

Legend:
[1] = tested on: patients with unexplained infertility, poor responders to FSH; assay: Example 2: letrozole with FSH in poor responders undergoing IUI; assay type: in vivo, human; settings: mean + SD
Source text: Eight patients with unexplained infertility undergoing intrauterine insemination (IUI) received hFSH (human FSH) from cycle day 3 and were considered poor responders (<3 dominant follicles) during 16 FSH-only cycles. […] HCG (10,000 IU) was given when leading follicles were >2 cm followed by IUI. The mean+SD age and duration of infertility were 36.5+2.96 and 4.6+1.2 years, respectively.

[2] = tested on: PCOS patients and unexplained infertility patients; assay: Example 4: controlled study letrozole + FSH versus FSH only with IUI; assay type: in vivo, human
Source text: The study groups included 15 PCOS patients and 12 unexplained infertility patients. The control groups consisted of 25 PCOS patients and 55 unexplained infertility patients. All patients received recombinant or highly purified FSH (50-150 IU/day starting on day 3 to 7 until day of hCG (10,000 IU) that was given when 2 leading follicles were >2 cm). The FSH regimen was based on the patient's clinical profile. Patients were not randomized. All patients had intrauterine insemination. There was no statistically significant difference between the study and control groups as regards age, weight, infertility duration, number of prior insemination cycles, semen parameters or type of FSH.

For “FSH only: follicle stimulating hormone (recombinant or highly purified) given alone”, which “Day of HCG administration” value [1] is on record?
Its value is 12.2 + 2.9.

And the “E2/mature follicle on HCG day” value [1]?
Its value is 1097 + 557 pmol/L.

And the “E2 on HCG day” value [1]?
The value was 1893 + 1066 pmol/L.

What about the “Endometrial thickness (on HCG day)” value [1] of the same substance?
The value was 0.92 + 0.15 cm.

What about the FSH/cycle [1] of the same substance?
The FSH/cycle was 1469 + 498 IU.

And the “LH on HCG day” value [1]?
Its value is 14.7 + 13.2 IU/L.

What about the “Number of mature follicles” value [1] of the same substance?
The value was 1.88 + 0.7.

What about the Stimulation days/cycle [1] of the same substance?
The Stimulation days/cycle was 9.1 + 3.

And the “Day of hCG admin.” value ([2]; PCOS)?
Its value is 12.

What about the “Endometrial thickness (on HCG day)” value ([2]; PCOS) of the same substance?
Its value is 11.7.

And the “Estradiol on hCG day” value ([2]; PCOS)?
Its value is 3480 pmol/L.

And the Estradiol/mature follicle ([2]; PCOS)?
The Estradiol/mature follicle was 967 pmol/L.

And the “Follicle (>1.8 cm) on hCG day” value ([2]; PCOS)?
Its value is 3.6.

And the “LH on hCG day” value ([2]; PCOS)?
Its value is 17.8 IU/L.

And the Pregnancy rate ([2]; PCOS)?
The Pregnancy rate was 20%.

And the “Total FSH dose/cycle” value ([2]; PCOS)?
Its value is 955 IU.

What about the “Day of hCG admin.” value ([2]; unexplained infertility) of the same substance?
Its value is 12.

And the “Endometrial thickness (on HCG day)” value ([2]; unexplained infertility)?
The value was 12.1.

What about the “Estradiol on hCG day” value ([2]; unexplained infertility) of the same substance?
Its value is 3140 pmol/L.

And the Estradiol/mature follicle ([2]; unexplained infertility)?
Its Estradiol/mature follicle is 969 pmol/L.

And the “Follicle (>1.8 cm) on hCG day” value ([2]; unexplained infertility)?
Its value is 3.2.

And the “LH on hCG day” value ([2]; unexplained infertility)?
The value was 18.3 IU/L.

What about the Pregnancy rate ([2]; unexplained infertility) of the same substance?
Its Pregnancy rate is 18%.

What about the “Total FSH dose/cycle” value ([2]; unexplained infertility) of the same substance?
Its value is 1320 IU.
